The chains behind the UniProt entries cited, without tags or fusion partners.
UniProt P08173, whole entry: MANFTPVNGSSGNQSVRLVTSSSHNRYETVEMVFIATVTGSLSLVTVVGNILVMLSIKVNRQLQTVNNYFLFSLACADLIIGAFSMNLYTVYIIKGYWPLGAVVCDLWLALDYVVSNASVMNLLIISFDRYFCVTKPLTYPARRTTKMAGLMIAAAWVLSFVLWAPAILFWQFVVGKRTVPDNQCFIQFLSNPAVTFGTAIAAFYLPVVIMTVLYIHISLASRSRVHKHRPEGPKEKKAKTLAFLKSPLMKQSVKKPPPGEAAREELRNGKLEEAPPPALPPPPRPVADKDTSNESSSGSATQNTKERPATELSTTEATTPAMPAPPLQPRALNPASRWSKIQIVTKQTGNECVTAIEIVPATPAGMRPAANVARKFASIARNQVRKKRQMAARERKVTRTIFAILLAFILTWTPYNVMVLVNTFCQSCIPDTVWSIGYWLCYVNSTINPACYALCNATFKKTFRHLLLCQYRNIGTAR

The entries are a selection whose mix differs from that of the whole data set. Activity calls are given as the source filed them.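 Rule for the calls: active = activation above its plate's cutoff, the mean activation of sample wells plus 3 SD; inactive = the rest.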
These compounds were tested against Muscarinic acetylcholine receptor M4 (Homo sapiens) (UniProt P08173) (assay: CHRM4 PAMs potentiating acetylcholine calcium signal – CHO-K1 cells, Fluo-8 calcium fluorescence, primary screen (AID 624126)). Conditions: CHO-K1 hM4/Gqi5, Fluo-8 calcium fluorescence, ACh EC20; at 3 µM; stronger effect = higher value; 0% = ACh EC20, 100% = maximal ACh.
With `CC(C)(C)n1nnnc1C(c1ccnc2ccccc12)N1CCC(n2c(=O)[nH]c3ccccc32)CC1` (centres undefined) the activation was inactive: 3.63%.
For `COc1ccc(C(c2nnnn2C2CCCCC2)N2CCC(n3c(=O)[nH]c4ccccc43)CC2)cc1` (centres undefined), the activation was inactive: 0%.
`CCN1CCC(Nc2cccc(F)c2)CC1` was tested, and the activation was inactive: -3.68%.
For `Cc1ccccc1NC1(C#N)CCN(Cc2ccccc2)CC1`, the activation was inactive: -3.13%.
With `Cn1c(=O)[nH]cc(N(CCCl)CCCl)c1=O` the activation was inactive: -1.3%.
In the case of `CN(C)c1ccc(C(=O)NCC2(N3CCCCC3)CCCCC2)cc1`, the activation is reported as inactive: 4.21%.
`O=C(NCC1(N2CCCCC2)CCCCC1)c1ccco1` was tested, and the activation was inactive: 1.11%.
In the case of `O=c1[nH]c2ccccc2n1C1CCN(C(c2ccnc3ccccc23)c2nnnn2C2CCCCC2)CC1` (centres undefined), the activation is reported as inactive: -8.88%.
In the case of `COc1cc(OC)cc(C(=O)NCC2(N3CCCCC3)CCCCC2)c1`, the activation is reported as inactive: -5.74%.
`CCC(c1nnnn1C1CCCCC1)N1CCC(n2c(=O)[nH]c3ccccc32)CC1` (centres undefined) was tested, and the activation was inactive: 9.63%.
For `CC(=O)N(c1ccccc1)C1CCNCC1`, the activation was inactive: 2.54%.
For `COc1cccc(C(c2nnnn2C2CCCCC2)N2CCC(n3c(=O)[nH]c4ccccc43)CC2)c1OC` (centres undefined), the activation was inactive: -9.76%.
For `Cc1ccc(NC2(C#N)CCN(Cc3ccccc3)CC2)cc1`, the activation was inactive: -2.19%.
`Fc1ccccc1NC1CCN(Cc2ccccc2)CC1` was tested, and the activation was inactive: -3.45%.
For `Cc1ccc(C(=O)NCC2(N3CCCCC3)CCCCC2)o1`, the activation was inactive: -4.41%.
In the case of `CCC(CO)(C(=O)OC1CN2CCC1CC2)c1ccccc1` (centres undefined), the activation is reported as inactive: -22.8%.
With `COc1cc(OC)cc(C(=O)NCC2(N3CCOCC3)CCCCC2)c1` the activation was inactive: -4.35%.
For `COc1cccc(C(c2nnnn2C2CCCC2)N2CCC(n3c(=O)[nH]c4ccccc43)CC2)c1OC` (centres undefined), the activation was inactive: -11.9%.
For `COc1cccc(C(=O)N(c2cc(C)cc(C)c2)C2CCN(C(=O)OC(C)(C)C)CC2)c1`, the activation was inactive: -10.4%.
With `CN1CCC(Nc2ccc(Cl)cc2)CC1` the activation was inactive: -6.4%.
With `CN1CCC(Nc2ccc(F)c(Cl)c2)CC1` the activation was inactive: -8.85%.
With `CCOc1ncccc1C(=O)NCC1(N2CCOCC2)CCCCC1` the activation was inactive: -2.67%.
`CCCOc1ccc(C(=O)NCC2(N(C)C)CCCCC2)cc1` was tested, and the activation was inactive: 1%.
With `O=c1[nH]c2ccccc2n1C1CCN(C(c2cc3ccccc3o2)c2nnnn2C2CCCC2)CC1` (centres undefined) the activation was inactive: -8.82%.
In the case of `O=C(O)C1(Nc2ccccc2)CCN(Cc2ccccc2)CC1`, the activation is reported as inactive: 2.2%.
With `NN(c1ccccc1)C1CCN(CCc2ccccc2)CC1` the activation was inactive: -6.83%.
With `CC(C)(C)OC(=O)N1CCC(Nc2ccccc2)CC1` the activation was inactive: -5.5%.
With `N/C(=N\O)c1c(N)no[n+]1[O-]` the activation was inactive: 5.08%.
With `COc1cccc(C(c2nnnn2C(C)(C)C)N2CCC(n3c(=O)[nH]c4ccccc43)CC2)c1OC` (centres undefined) the activation was inactive: -4.76%.
`CCOC(=O)N1CCC(Nc2ccc(C)cc2)CC1` was tested, and the activation was inactive: 2.59%.
`CCCCn1nnnc1C(c1cccc(OC)c1OC)N1CCC(n2c(=O)[nH]c3ccccc32)CC1` (centres undefined) was tested, and the activation was inactive: -15.1%.
`O=c1[nH]c2ccccc2n1C1CCN(C(c2cccs2)c2nnnn2C2CCCC2)CC1` (centres undefined) was tested, and the activation was inactive: -13.6%.
In the case of `O=C(OC1CN2CCC1CC2)C1c2ccccc2C=Cc2ccccc21` (centres undefined), the activation is reported as inactive: -16.7%.
`O=C(NCC1(N2CCOCC2)CCCCC1)c1cc(Br)ccc1Cl` was tested, and the activation was inactive: 12.9%.
For `COc1cc(C(=O)NCC2(N3CCOCC3)CCCCC2)cc(OC)c1C`, the activation was inactive: 7.7%.
For `CCCCn1nnnc1C(c1ccccc1)N1CCC(n2c(=O)[nH]c3ccccc32)CC1` (centres undefined), the activation was inactive: -14.5%.
`O=c1[nH]c2ccccc2n1C1CCN(C(c2ccnc3ccccc23)c2nnnn2C2CCCC2)CC1` (centres undefined) was tested, and the activation was inactive: -11.1%.
For `COc1ccc(C(=O)NCC2(N3CCOCC3)CCCCC2)cc1OC`, the activation was inactive: 9.29%.
In the case of `O=c1[nH]c2ccccc2n1C1CCN(C(c2cccs2)c2nnnn2C2CCCCC2)CC1` (centres undefined), the activation is reported as inactive: -15.3%.
For `O=c1[nH]c2ccccc2n1C1CCN(C(c2ccccc2)c2nnnn2C2CCCC2)CC1` (centres undefined), the activation was inactive: -2.51%.
For `CCCN1CCC(Nc2cc(OC)cc(OC)c2)CC1`, the activation was inactive: -1.87%.
`Cc1cc(N(CCCl)CCCl)ccc1C=O` was tested, and the activation was inactive: 0.14%.
For `c1ccc(CN2CCC(Nc3ccccc3)CC2)cc1`, the activation was inactive: -1.44%.
`CN(C)C1(CNC(=O)c2cccc(C#N)c2)CCCCC1` was tested, and the activation was inactive: 3.31%.
`CC(C)(C)n1nnnc1C(c1cccc2ccccc12)N1CCC(n2c(=O)[nH]c3ccccc32)CC1` (centres undefined) was tested, and the activation was inactive: -4.58%.
With `CC(C)(C)OC(=O)N1CCC(N(C(=O)c2ccccc2)c2ccc(Cl)cc2)CC1` the activation was inactive: 2.16%.
`N#Cc1ccc(C(=O)NCC2(N3CCCCC3)CCCCC2)cc1` was tested, and the activation was inactive: -1.23%.
For `O=C(NCC1(N2CCCCC2)CCCCC1)c1cccc(C(F)(F)F)c1`, the activation was inactive: -4.19%.
In the case of `CCCCn1nnnc1C(c1cccc2ccccc12)N1CCC(n2c(=O)[nH]c3ccccc32)CC1` (centres undefined), the activation is reported as inactive: -6.08%.
For `CN1CCN(CCOC(=O)C(O)(c2ccccc2)c2ccccc2)CC1`, the activation was inactive: -35.9%.
With `COc1ccc(NC2CCN(C(=O)OC(C)(C)C)CC2)cc1` the activation was inactive: -5.42%.
`CC(C)c1ccc(C(=O)NCC2(N3CCOCC3)CCCCC2)cc1` was tested, and the activation was inactive: 2.37%.
For `COc1cc(C(=O)NCC2(N3CCCCC3)CCCCC2)ccc1OC(F)F`, the activation was inactive: -11.5%.
In the case of `O=C(NCC1(N2CCOCC2)CCCCC1)c1cc(=O)[nH]c2ccccc12`, the activation is reported as inactive: 7.45%.

Reference: PubChem BioAssay AID624126 (The Scripps Research Institute Molecular Screening Center, 2012)
